## Measured affinities in a library of Ab-14 light chain variants

Source: Li et al. 2023 (doi:10.1038/s41467-023-39022-2), MIT Lincoln Laboratory and A-Alpha Bio; data file from the FLAb repository.

Target peptide (SARS-CoV-2 spike, HR2 region): PDVDLGDISGINAS

The variants keep the heavy chain, the linker and the frameworks of Ab-14 (scFv order VH, a (GGGGS)3 linker, VL).
VH: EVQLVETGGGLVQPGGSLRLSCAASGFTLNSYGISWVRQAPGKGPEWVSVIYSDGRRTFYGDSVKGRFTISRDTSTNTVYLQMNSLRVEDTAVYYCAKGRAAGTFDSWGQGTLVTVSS
VL: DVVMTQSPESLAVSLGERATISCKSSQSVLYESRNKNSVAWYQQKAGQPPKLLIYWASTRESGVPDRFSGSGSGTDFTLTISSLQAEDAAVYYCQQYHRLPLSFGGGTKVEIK

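The starting antibody came from a phage panning campaign against this peptide. The variants were designed computationally from a first round of random CDR variants and then made and measured. Their group label is 14L_En_HC (En: ensemble of fine-tuned language models; HC: hill climbing; a sequence that several methods proposed may carry one label only). The assay is AlphaSeq: two haploid yeast populations carry antibody and antigen on their surface. Pairs that bind mate more often; barcode pairs of the diploids are counted by sequencing. The ratio of observed to expected reads was calibrated, replicate by replicate, on BCL2-family standards whose Kd was known from biolayer interferometry. Each pool was mated in six replicate cultures.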

The parent's light chain CDRs are KSSQSVLYESRNKNSVA, WASTRES, QQYHRLPLS; each variant's own CDRs replace them letter for letter.
Values are log10 of the apparent Kd in nM; lower means stronger binding.
An entry "n.d." has no value in the source: the pair was not observed among the diploids in that replicate. This suggests poor binding but is not conclusive.

| CDR-L1 | CDR-L2 | CDR-L3 | log10 Kd (nM) by replicate | control signals |
|---|---|---|---|---|
| KISGMYQKESKNKNSVA | EMVNRES | QQYDRLPLS | 0.74 / 0.73 / 0.46 / 0.68 / 0.56 / 0.60 | 0/18 |
| MFSQLVYTGSRARNAVA | QASTREN | QQYHRLPLS | 2.56 / 1.74 / n.d. / 1.32 / 1.77 / 1.87 | 0/18 |
| TMSQMFEGLSTSKNPVA | QVSTREE | QQYHRLPLS | 1.20 / 1.49 / 1.37 / 0.96 / 1.27 / 0.97 | 0/18 |
| IFSQSVLMGNMTKNSVA | QASTRFN | QQYHRLPLI | 1.82 / 1.89 / 1.53 / 1.45 / 1.96 / 1.92 | 1/18 (2.56) |
| MIGQGLMGESRAKNSIA | HASLRFD | QHYHRLPLI | n.d. / 3.57 / 1.26 / 1.54 / 3.80 / 2.22 | 1/18 (1.69) |
| KLLQNVMTEGRIRNNVA | HMTMRED | QQYWRLPLS | 1.07 / n.d. / 0.60 / 0.61 / 1.22 / 1.24 | 0/18 |
| KITQLVMETSKNRNNVA | EVSTVPV | QQYHRLPLS | 2.05 / 2.70 / 2.47 / 2.27 / n.d. / n.d. | 0/18 |
| KLRESQHVESKQKNNVA | DNSTRES | QDYHRLPLS | 2.38 / 1.81 / 2.12 / 2.96 / 1.80 / 2.40 | 2/18 (2.78) |
| MLSQLVKMGSRNTNSVA | DNSTRGS | QQYDRLPLS | 2.40 / 1.17 / 2.55 / 2.32 / 2.34 / 3.09 | 0/18 |
| KISQMSTIESITHNSVA | QTSTREQ | QQYDRLPLS | 1.06 / 0.71 / 0.36 / 0.41 / 0.61 / 0.77 | 0/18 |
| KILGEIENSTYNRNSVA | HSTTRED | QSYHRLPLS | 0.38 / 0.29 / 0.69 / 0.53 / 0.49 / 0.93 | 0/18 |
| QLLMATMQETYNRNSVA | HAETRED | QSYHRLPLS | 0.31 / 0.41 / 0.28 / 0.29 / 0.05 / 0.61 | 3/18 (2.90) |
| HLSHSTDLESVHKNSIA | DLMTRES | QQYHRLPLS | 0.13 / -0.12 / -0.21 / -0.66 / -0.05 / 0.13 | 0/18 |
| TVSQVTGMLQHNTNSVA | DMNTRGS | QQYDRLPLS | 0.49 / 0.10 / 0.24 / 0.21 / 0.14 / 0.39 | 0/18 |
| KISMSYRYESQEKNSIA | EMTTREE | QSYHRLPLS | 0.51 / 0.02 / 0.04 / 0.12 / 0.28 / 0.58 | 0/18 |
| MFSSLMEYGSRYKNSVA | QASTRED | QQYHWLPLS | n.d. / 0.37 / 0.91 / 1.13 / 0.50 / 0.50 | 0/18 |
| SISQLVNFEGKNKNSVA | QMSTRES | QQYDRLPLS | 0.34 / 0.37 / 0.32 / 0.13 / 0.29 / 0.34 | 3/18 (2.79) |
| KLIQSVAMSSRNKSSIA | DNSTRES | QQYHRLPLS | 2.22 / 2.46 / 1.66 / 2.84 / 2.21 / 2.43 | 0/18 |
| TISYSALMTGMNRNSVA | QAEERLE | QQYHRLPLS | 1.20 / 1.73 / 2.20 / 2.10 / n.d. / 1.74 | 1/18 (2.95) |
| TLMEVGGYSLNQHNSIA | DLRTREN | QQYHRLPLS | 1.67 / 1.10 / 1.02 / 0.66 / 0.83 / 1.25 | 1/18 (2.85) |
| IFSQSVLMGNMTRNSVA | QANERFN | QQYDRLPLI | 2.52 / 1.83 / 2.68 / 2.51 / 2.46 / 2.74 | 1/18 (2.91) |
| KLSQFYRMESRDKNSVA | DNSTRES | QDYDRLPLS | 1.65 / 1.20 / 1.13 / 1.26 / 1.92 / 1.77 | 4/18 (2.85) |
| SLAESAHLESRNKNSVA | DNTTRES | QHYDRLPLS | n.d. / n.d. / n.d. / n.d. / n.d. / n.d. | 1/18 (2.39) |
| HLSDTVMQGSVYRNSVA | QESTRAD | QQYHRLPLS | 0.06 / 0.15 / 0.18 / -0.07 / 0.05 / 0.37 | 0/18 |
| KLSGATRLESQKKASVA | ENSTRGE | QQYFRLPLS | 0.74 / 1.46 / 0.76 / 0.95 / 0.85 / 0.72 | 1/18 (2.92) |
| KLSMMYQHTSRMKNNIA | ERSTREE | QQYHHLPLS | 1.16 / 0.85 / 1.38 / 1.97 / 1.45 / 1.79 | 0/18 |
| KLYFNVGTMSLNKQSIA | DMERRED | QQYHRLPLS | 1.76 / 0.40 / 1.05 / 0.63 / 1.20 / 0.94 | 0/18 |
| MISDMGLHDMRIQNSVA | NNSTREA | QQYDRLPLS | n.d. / 3.23 / n.d. / n.d. / n.d. / n.d. | 0/18 |
| ILSQMLLTAGNKHSSVA | QANNREQ | QQYHRLPLS | 0.19 / 0.12 / 0.26 / -0.42 / 0.38 / 0.71 | 0/18 |
| KLLQTVMNGRYNRNNVA | HMTMRED | QQYFRLPLS | 1.51 / 1.19 / 1.89 / 1.52 / 1.57 / 1.19 | 0/18 |
| MISDLMLYGARNKNPIA | NASTREY | QQYHRLPLS | 0.78 / 0.83 / 0.81 / 0.56 / 0.89 / 1.02 | 2/18 (2.51) |
| KISTSALYESINKNNVA | ELSTRGS | QQYERLPLS | n.d. / n.d. / n.d. / n.d. / n.d. / n.d. | 0/18 |
| KIGGVTNGISRNKNSVA | EQETRES | QQYNRLPLS | 0.64 / 0.63 / 0.31 / 0.50 / 0.45 / 0.60 | 2/18 (3.84) |
| KISGYLNKESKAKNNVA | EMVNRES | QQYDRLPLS | 0.62 / 0.18 / 0.38 / 0.17 / 0.19 / 0.22 | 1/18 (3.03) |
| KISYMGEYFSTNHSAIA | QASTREE | QQYHRLPLS | 1.57 / 1.61 / 0.89 / 1.56 / 1.20 / 1.51 | 0/18 |
| ALSQSMDMTSRNKNSVA | DLSTRCN | QQYHRLPLS | -0.11 / -0.11 / -0.40 / -0.49 / -0.47 / -0.17 | 2/18 (2.48) |
| KLYQMTGIESHAKNSLA | DANRRED | QQYDRLPLS | 0.36 / 0.21 / 0.14 / -0.02 / 0.02 / 0.35 | 1/18 (2.93) |
| KLGQLVGYEQRNKSRVA | DNSTRES | QQYDRLPLS | n.d. / n.d. / n.d. / n.d. / 4.03 / 2.93 | 0/18 |
| HVSESTFAQSKMRNSVA | ENSTRES | QQYDRLPLS | 2.17 / 1.69 / 2.35 / 2.11 / 3.01 / 3.18 | 3/18 (2.74) |
| HMSQVTMYGYWQKNSVA | QTSTREE | QQYDRLPLS | 0.84 / 0.73 / 0.88 / 0.96 / 0.98 / 0.68 | 1/18 (2.77) |
| TIAGLANYESTNKNSVA | ELTMRGQ | QQYERLPLS | 0.46 / 0.49 / 0.44 / 0.15 / 0.55 / 0.35 | 2/18 (3.14) |
| MISQSFLIGMKAKNSVA | QTNTRTE | QQYDRLPLI | 0.38 / 0.56 / 0.33 / 0.30 / 0.78 / 0.70 | 0/18 |
| MISDLTYYGSRNKNSVA | DLSTRGS | QQYHRLPLS | -0.26 / -0.19 / -0.26 / -0.31 / -0.42 / -0.16 | 0/18 |
| HISMMVGTKGYNKASVA | NAETRED | QQYHRLPLS | 0.45 / 0.01 / 0.18 / 0.05 / 0.09 / 0.35 | 0/18 |
| TISQSVLMTGLNRNSVA | QAEERLT | QQYHRLPLS | n.d. / n.d. / n.d. / n.d. / n.d. / n.d. | 0/18 |
| KLRQVTEYESFHKNSVA | QTSTRES | QDYDRLPLS | 2.22 / 2.36 / 1.79 / 1.85 / 1.88 / 1.58 | 0/18 |

A selection of 3 entries from above:

| CDR-L1 | CDR-L2 | CDR-L3 | log10 Kd (nM) by replicate | control signals |
|---|---|---|---|---|
| KLRQVTEYESFHKNSVA | QTSTRES | QDYDRLPLS | 2.22 / 2.36 / 1.79 / 1.85 / 1.88 / 1.58 | 0/18 |
| KLLQTVMNGRYNRNNVA | HMTMRED | QQYFRLPLS | 1.51 / 1.19 / 1.89 / 1.52 / 1.57 / 1.19 | 0/18 |
| TVSQVTGMLQHNTNSVA | DMNTRGS | QQYDRLPLS | 0.49 / 0.10 / 0.24 / 0.21 / 0.14 / 0.39 | 0/18 |

Values of this round are not directly comparable with the first-round values of the same sequences.
As a blank, each scFv also met three strains without target: over all light chain designs, 4% of these pairings were detected, typically at 2.64 and seldom below 1.59. For each scFv, signals with the empty controls are counted beside the result, with their mean in brackets.
Of ten entries with the parent sequence, four were seen in most replicates (averages 0.34 to 2.37), three in one and three in none, so single entries are noisy.
The authors averaged sequences with at least three values out of six and counted those with two or fewer as poor binders.